Target: T1, central A1 receptors (Rattus norvegicus, UniProt P25099)
T1 construct: A1 -adenosine receptors in rat brain membranes; from tissue; host or cells: rat brain membranes
Type: binding
Conditions: [125I]APNEA, after treatment with p-DITC-XAC; same affinity as native receptors; read-out: KD-value of radioligand at remaining/native receptors

Chains of the proteins cited; added tags and fusions are not shown.
UniProt P25099, whole entry: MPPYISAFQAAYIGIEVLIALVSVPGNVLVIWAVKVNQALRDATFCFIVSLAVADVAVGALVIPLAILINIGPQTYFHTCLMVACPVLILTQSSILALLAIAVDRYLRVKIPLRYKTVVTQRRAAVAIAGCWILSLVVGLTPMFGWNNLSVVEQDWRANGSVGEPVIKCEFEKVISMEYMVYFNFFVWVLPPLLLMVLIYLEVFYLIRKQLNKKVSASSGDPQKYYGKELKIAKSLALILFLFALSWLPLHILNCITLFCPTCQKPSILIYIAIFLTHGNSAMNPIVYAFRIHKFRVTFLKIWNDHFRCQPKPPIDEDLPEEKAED

Q: For “N^6 -(4aminophenylethyl)adenosine [[125I]APNEA, reference compound]”, which Kd is on record?
A: 0.5 nM
